# Molecular target: MMP-1-digested type I collagen (plate coating)
# Experiment: cell-based or functional assay
substance,measurement,value
"CMP 09C, (Pro-Flp-Gly)7 (peptide)","longest neurite outgrowth of DRG explants on MMP1-digested collagen treated with CMP, normalized to intact collagen (% greater than intact collagen)",21

# From patent US20260115261A1, “COLLAGEN PEPTIDE-BASED MEDICAMENT COMPOSITIONS AND USES THEREOF” (SUSTAIN HOLDINGS, LLC, priority 2023, published 2026)
